Results on six compounds are retold here after paper PMC8159160 (Journal of medicinal chemistry, 2021).

For series [1] the following is noted: mouse, iv, 15 mg/kg.
Series [2] concerns NEDD8 transfer to cullin substrates (reconstituted NEDD8 cascade). The note with it: read-out: IC50, transfer of FAM-labeled NEDD8 to cullin substrates; fully reconstituted NEDD8 cascade (pulse-chase).
Series [3] relates to HCC95 cells. The note with it: 10 μM, colonies counted at 10 days.
In series [4] the test system is mice. The note with it: mouse, in vivo.
For series [5] the following is noted: mouse, microsomes.

`CCN1C(=O)[C@@H](NC(=O)c2cccc(C)c2)[C@@H](c2ccc(F)cc2)c2c(C)nn(-c3ccccc3)c21` (relative stereo) [Compound 2, N-(rel-(4S,5S)-7-ethyl-4-(4-fluorophenyl)-3-methyl-6-oxo-1-phenyl-4,5,6,7-tetrahydro-1H-pyrazolo[3,4-b]pyridin-5-yl)-3-methylbenzamide]: in series [1], the “murine plasma CLIV” value is reported as 86.5 mL/min/kg.

Turning to `CCN1C(=O)[C@@H](NC(=O)c2cccc(C(F)(F)F)c2)[C@@H](c2ccc(F)cc2)c2c(CN)nn(-c3ccccc3)c21` (relative stereo) [Compound 40, N-(rel-(4S,5S)-3-(aminomethyl)-7-ethyl-4-(4-fluorophenyl)-6-oxo-1-phenyl-4,5,6,7-tetrahydro-1H-pyrazolo[3,4-b]pyridin-5-yl)-3-(trifluoromethyl)benzamide], the IC50 in series [2] was 110 nM. The “inhibition of colony formation” value in series [3] was “inhibited colony formation completely”. Further, the “tolerability / adverse reactions” value in series [4] is listed as “well tolerated”.

In the case of `Cc1nn(-c2ccccc2)c2c1[C@H](c1ccc(F)cc1)[C@H](NC(=O)c1cccc(C(F)(F)F)c1)C(=O)N2CCO` [Compound 19], the “oxidative/microsomal metabolic stability (in words)” value in series [5] was “retains metabolic stability”.

Consider `CCCn1nc(C)c2c1N(CC)C(=O)[C@@H](NC(=O)c1cccc(C(F)(F)F)c1)[C@H]2c1ccc(F)cc1` [Compound 22], for which, in series [5], the “oxidative/microsomal metabolic stability (in words)” value was “reduction in metabolic stability”.

As to `CCN1C(=O)[C@@H](NC(=O)c2cccc(C(F)(F)F)c2)[C@@H](c2ccc(F)cc2)c2c(C)nn(C3CC3)c21` [Compound 24], the “oxidative/microsomal metabolic stability (in words)” value in series [5] is “reduction in metabolic stability”.

For the compound `CCCCN1CCC(N(Cc2ccccc2)C(=O)Nc2ccc(Cl)c(Cl)c2)CC1` [NAcM-OPT, reference compound], the “inhibition of colony formation” value in series [3] was “equally efficacious”.

The term IC50 denotes the concentration at which inhibition is half-maximal.
